Bioassay records from PubChem.
SMARCA2 activ: SMARCA2 function activation, primary screen | MG213 cells, MMTV-luciferase reporter, dexamethasone, overnight | activation, % at 9.1 µM | 370,000 compounds, 1% hits | AID 652017; in the data active means activation above about 7.8%;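 further: 0% = vehicle wells and 100% = reference activator wells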
Yeast UUG start: yeast start codon fidelity modulation; AID 602363; activity score, % at 18.7 µM; S. cerevisiae UUG-firefly luciferase reporter, luminescence/redox ratio; 0.13% of 350,000 active;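 active means replicate mean at a twofold rise or more, about +100% in these data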;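 further: firefly luciferase made from a UUG start codon reports start codon fidelity; reporter light over untreated wells divided by growth signal over untreated wells; some hits fall short of that in this replicate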
INS-1E GSIS act: primary screen for activators of insulin secretion dependent on glucose, INS-1E cells, GLuc reporter luminescence. 370,000 compounds, 0.61% hits. INS-1E GLuc reporter insulin secretion, 2-3 h. activation, % at 16.6 µM. AID 743287;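 active means lowest replicate activation of at least 40%, so every replicate reaches that level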;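 further: 0% = median of neutral control wells and 100% = median of IBMX positive control wells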
PDI inh: blocks human protein disulfide isomerase activity; P07237; 350,000 compounds, 0.052% hits; PDI insulin aggregation turbidity, A650, 90 min; inhibition, % at 10 µM; AID 588391;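 active means mean inhibition across replicates of 30% or more, whatever share of single replicates reach that level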
ERp5 inh: inhibitors of human ERp5; ERp5 insulin aggregation, absorbance 650 nm, 90 min; 350,000 compounds, 0.05% hits; Q15084; inhibition, % at 9.99 µM;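 active means mean replicate inhibition above about 25%, with every replicate also reaching it, limit read from the data, passing the limit was not always enough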
Rev-erbA mod: modulators of human Rev-erb alpha DNA binding; Rev-erbα–FITC-DNA binding, fluorescence polarization, 90 min; activity, % at 10 µM; 370,000 compounds, 0.79% hits;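 active means activity above about 14%, limit read from the data; passing the limit was not always enough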;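 further: 0% = DMSO wells with 35 nM protein and 100% = DMSO wells with 750 nM protein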
Rev-erbA confirm: Rev-erb alpha (human) modulation, hit confirmation; Rev-erb alpha FITC-DNA binding, fluorescence polarization, 90 min; AID 1259319; activation, % at 25 µM; 3,000 compounds, 61% hits; shares compounds with Rev-erbA mod;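 active means activation at or above a set limit, or at least 3 SD above the negative control mean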;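 further: 0% = 35 nM protein with DMSO and 100% = 750 nM protein high control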
RORg counter: RORgamma DNA-binding activity, dose-response counter-screen. shares compounds with Rev-erbA mod. purified RORgamma protein-FITC-DNA binding, fluorescence polarization. IC50, µM. 910 compounds, 8% hits. AID 1259320;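 active means Compounds whose fitted half-maximal concentration for disrupting protein-DNA binding is below 10 micromolar; the record names Rev-erb in its text, so the target is in doubt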
Numbers without * were called inactive; ! = a repeat was not active. An excerpt weighted towards active compounds, which were near 2.1% of everything screened.

Screening COC(=O)c1c(NC(=O)C2Cc3ccccc3C(=O)O2)sc2c1CCCC2 (stereo not drawn) returned SMARCA2 activ 1, INS-1E GSIS act 14, PDI inh -12, ERp5 inh 7, Rev-erbA mod 50* and Rev-erbA confirm 22*.
Screening CCOC(=O)c1c(NC(=O)C2CCCN(S(=O)(=O)c3ccccc3)C2)sc2c1CCCC2 (stereo not drawn) returned SMARCA2 activ -5, Yeast UUG start -17, INS-1E GSIS act -42, PDI inh -2, Rev-erbA mod 24*, Rev-erbA confirm 103* and RORg counter >40.
COC(=O)c1c(NC(=O)C2(C)Cc3ccccc3C(=O)O2)sc2c1CCCC2 (stereo not drawn) was read as SMARCA2 activ -3, Yeast UUG start 2, INS-1E GSIS act 3, PDI inh -4, ERp5 inh 1 and Rev-erbA mod 5.
Screening CCOC(=O)c1c(NC(=O)C2CCCN(S(=O)(=O)c3ccc(C)cc3)C2)sc2c1CCCC2 (stereo not drawn) returned SMARCA2 activ 0, Yeast UUG start -17, INS-1E GSIS act 4, PDI inh 3 and Rev-erbA mod 4.
Screening CCOC(=O)c1c(NC(=O)C2Cc3ccccc3C(=O)O2)sc2c1CCCC2 (stereo not drawn) returned SMARCA2 activ 3, Yeast UUG start -13, INS-1E GSIS act 1, PDI inh -9, ERp5 inh 4, Rev-erbA mod 35* and Rev-erbA confirm 14*.
COc1ccc(CN(C)C[C@@H]2OCCCC[C@H](C)Oc3ccc(NS(=O)(=O)c4cn(C)cn4)cc3C(=O)N([C@@H](C)CO)C[C@H]2C)cc1 was read as Yeast UUG start 9, INS-1E GSIS act 10 and ERp5 inh -2.
For Cc1noc(C)c1NC(=O)Nc1ccc2c(c1)C(=O)N([C@H](C)CO)C[C@@H](C)[C@@H](CN(C)S(=O)(=O)c1ccccc1)O2 the results were Yeast UUG start 16 and INS-1E GSIS act 22.
For COC(=O)[C@]1(Cc2ccccc2)N[C@H](c2ccc(-c3cc(C(C)=O)cs3)cc2)[C@@H]2C(=O)N(C)C(=O)[C@@H]21 the results were SMARCA2 activ -1, Yeast UUG start -10, INS-1E GSIS act 5, PDI inh 6, ERp5 inh 2, Rev-erbA mod 23* and Rev-erbA confirm 12.
For COC(=O)[C@]1(Cc2ccccc2)N[C@H](c2ccc(-c3ccccc3)cc2)[C@@H]2C(=O)N(C)C(=O)[C@@H]21 the results were SMARCA2 activ 0, Yeast UUG start -3, INS-1E GSIS act -4, PDI inh 3, ERp5 inh 2 and Rev-erbA mod -1.
For C[C@H]1CN([C@@H](C)CO)C(=O)c2ccccc2-c2ccccc2CO[C@@H]1CN(C)S(=O)(=O)c1cccc(F)c1 the results were INS-1E GSIS act 27.
CCCC(C)NC(=O)Cc1ccc(Br)cc1 (stereo not drawn) was read as SMARCA2 activ 3, INS-1E GSIS act 1, PDI inh 1, ERp5 inh 3 and Rev-erbA mod 0.
For CCC(C)NC(=O)Cc1c(OC)ccc2cc(Br)ccc12 (stereo not drawn) the results were SMARCA2 activ -3, INS-1E GSIS act -6, PDI inh 2, ERp5 inh 3, Rev-erbA mod 23*, Rev-erbA confirm 40* and RORg counter >40.
For COC(=O)Cn1c(=NC(=O)c2nc3ccccc3s2)sc2cc(S(C)(=O)=O)ccc21 the results were SMARCA2 activ 2, INS-1E GSIS act 2, ERp5 inh -2, Rev-erbA mod 78*, Rev-erbA confirm 59* and RORg counter 1*.
For O=C(C[C@@H]1CC[C@H]2[C@@H](COC[C@H](O)CN2CC2CCCCC2)O1)NCc1ccc(Cl)cc1 the results were Yeast UUG start -9, INS-1E GSIS act 8 and ERp5 inh 5.
Cn1c(/C(C#N)=C(\O)c2ccc([N+](=O)[O-])s2)nc2ccccc21 was read as SMARCA2 activ -3, Yeast UUG start -5, INS-1E GSIS act -18, PDI inh 1, ERp5 inh -3 and Rev-erbA mod -29.
Screening Cn1c(/C(C#N)=C(\O)c2ccc(Cl)s2)nc2ccccc21 returned SMARCA2 activ 3, Yeast UUG start -20, INS-1E GSIS act 6, PDI inh -4, ERp5 inh -2, Rev-erbA mod 50* and Rev-erbA confirm 12.
Screening Cn1c(/C(C#N)=C(\O)COc2ccc3ccccc3c2)nc2ccccc21 returned SMARCA2 activ -3, Yeast UUG start -4, INS-1E GSIS act 2, PDI inh 1, ERp5 inh 4, Rev-erbA mod 23* and Rev-erbA confirm 9.
Screening Cn1c(/C(C#N)=C(\O)c2ccccc2Cl)nc2ccccc21 returned SMARCA2 activ -4, INS-1E GSIS act 14, PDI inh -6, ERp5 inh 8 and Rev-erbA mod -6.
`CC=Cc1ccc2n(c1=O)C[C@H]1[C@H](CO)[C@@H](C(=O)N[C@H](C)c3ccccc3)N(C(=O)c3cnccn3)[C@@H]21` (mixture of isomers) gave INS-1E GSIS act 0 and ERp5 inh 4.
`O=C1CCCC2=C1C1(CCCC1)N=C(Nc1nc3ccccc3o1)N2` gave SMARCA2 activ -6, Yeast UUG start -14, INS-1E GSIS act -2, PDI inh 1, ERp5 inh -4, Rev-erbA mod 21*! and Rev-erbA confirm -4.

Retrieved by compound from the list above, 3 records:
CCCC(C)NC(=O)Cc1ccc(Br)cc1 (stereo not drawn) was read as SMARCA2 activ 3, INS-1E GSIS act 1, PDI inh 1, ERp5 inh 3 and Rev-erbA mod 0.
`CC=Cc1ccc2n(c1=O)C[C@H]1[C@H](CO)[C@@H](C(=O)N[C@H](C)c3ccccc3)N(C(=O)c3cnccn3)[C@@H]21` (mixture of isomers) gave INS-1E GSIS act 0 and ERp5 inh 4.
Screening Cn1c(/C(C#N)=C(\O)COc2ccc3ccccc3c2)nc2ccccc21 returned SMARCA2 activ -3, Yeast UUG start -4, INS-1E GSIS act 2, PDI inh 1, ERp5 inh 4, Rev-erbA mod 23* and Rev-erbA confirm 9.

(further entries)
O=C(COC(=O)c1ccccc1C(=O)c1ccc(Cl)cc1)NC(c1ccccc1)c1ccccc1 was read as SMARCA2 activ -2, INS-1E GSIS act -11, PDI inh -10, ERp5 inh -5, Rev-erbA mod 35* and Rev-erbA confirm 9.
O=C(COC(=O)c1ccccc1C(=O)c1ccc(Cl)cc1)NCCc1ccccc1 was read as SMARCA2 activ -2, Yeast UUG start -2, INS-1E GSIS act -19, PDI inh -4, ERp5 inh 5 and Rev-erbA mod 1.
`CCN(CC)c1ccc2c(c1)OC(N)=C(C#N)C2c1cccnc1` (stereo not drawn) gave SMARCA2 activ 0, Yeast UUG start -14, INS-1E GSIS act -5, PDI inh -12, ERp5 inh 6, Rev-erbA mod 53* and Rev-erbA confirm 48*.
Screening N#Cc1cc(C#N)c(N2CCN(c3cccc(Cl)n3)CC2)nc1N returned SMARCA2 activ 5, Yeast UUG start -27, INS-1E GSIS act -22, PDI inh -2, Rev-erbA mod 26*, Rev-erbA confirm 71* and RORg counter inactive.
